Results: US11899021B2, “Luciferase-based thermal shift assays” (Promega Corporation, priority 2015, dated 2024)

Protein sequences, listed by entry. Tags and fused reporters are not part of them.
UniProt Q13547, whole entry: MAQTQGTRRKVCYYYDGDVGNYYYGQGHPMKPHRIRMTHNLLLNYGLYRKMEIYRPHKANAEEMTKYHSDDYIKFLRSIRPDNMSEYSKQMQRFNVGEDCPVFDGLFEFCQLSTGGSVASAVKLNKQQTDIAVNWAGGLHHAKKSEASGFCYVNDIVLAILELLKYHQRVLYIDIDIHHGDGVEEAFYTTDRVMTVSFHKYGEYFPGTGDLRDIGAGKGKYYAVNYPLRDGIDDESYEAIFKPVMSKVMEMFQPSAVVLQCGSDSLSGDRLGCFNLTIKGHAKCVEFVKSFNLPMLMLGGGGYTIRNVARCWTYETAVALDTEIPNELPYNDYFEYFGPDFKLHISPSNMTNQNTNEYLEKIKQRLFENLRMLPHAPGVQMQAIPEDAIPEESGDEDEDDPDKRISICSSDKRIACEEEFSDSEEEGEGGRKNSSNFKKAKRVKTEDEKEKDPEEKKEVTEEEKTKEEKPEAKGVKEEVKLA

Biological target: HDAC1-Nluc (Homo sapiens, UniProt Q13547)
Experiment: Direct-luciferase-detection thermal shift assay, HDAC1-Nluc (Example 7)
Conditions: HeLa cells then digitonin, 10 uL of 1 mM stock per well

`O=C(CCCCCCC(=O)Nc1ccccc1)NO` [SAHA] was tested, and the “shift in melting temperature (apparent Tagg) compared to the controls” value was “significant shift in melting temperature (apparent Tagg)”.
